Data published in patent publication US20220370543A1, “METHODS OF TREATMENT FOR MODIFYING HEMODYNAMICS” (EBI ANTI SEPSIS B.V., priority 2019, published 2022).

Test: Solubility measurements / aggregation points of AQGV salts
Excerpt: At first attempts were made to mix a solution of the free base and an acid in order to achieve a concentrated DMSO solution of the salt and subsequently dilute this in water in order to determine solubility. […] It was decided to determine the solubility of the salts required by dilution of known amount of salts (not soluble) till a clear solution is obtained.

For adenosine, the “Solubility compared to AQGV-Ac” value (0.9% NaCl) was “did not provide solubility” and the “Solubility in DMSO” value (free base mixed with acid in DMSO) was “did not dissolve in DMSO at all”.
